The values below come from patent US20080176963A1, “TREATMENT OF BRAIN DISORDERS OF THE STRIATUM” (priority 2007, published 2008).

Read-outs that look alike come from different tables or passages of the source.

Assay [1] concerns indirect-pathway MSN synapses. Nature of the assay: LTD induced by tetanic stimulation in striatal slices from reserpine-treated mice. It counts as cell-based, mouse.
Assay [2] concerns indirect-pathway MSN synapses. It counts as cell-based, mouse.
Assay [3] has as its system indirect-pathway synapses. In words: DHPG-elicited depression of EPSCs (eCB-LTD), indirect pathway. It counts as cell-based, mouse.
Assay [4] relates to reserpine-treated mice. Nature of the assay: Open-field locomotor activity in reserpine-treated mice. The following applies: mouse, in vivo. As for the experimental part: (§1) Dopamine depletion and behaviour. Reserpine was administered i.p. at a concentration of 1 or 5 mgkg^−1, and electrophysiological and behavioural experiments were performed 18-24 h after injections. 6-Hydroxydopamine was injected bilaterally into the median forebrain bundle at a concentration of 5 μg μl^−1 to a total volume of 2 μL per side, and experiments were performed 48-60 h after injections. Catalepsy was measured with the bar test. Descent latency represents the time in seconds required for the mouse either to remove both paws from a bar (diameter 2 mm) placed 4 cm above the ground, or for one paw to touch the ground. Horizontal locomotor activity was measured in 15-min blocks with the ENV-510 test chamber and Activity Monitor software. Animals were tested 45-60 min after drug administration. All procedures involving animals were approved by the Institutional Animal Care and Use Committee.
Reserpine treatment. To study the effects of dopamine depletion, reserpine (Sigma-Aldrich) was dissolved in 1% glacial acetic acid at a concentration of 2.5 mg/mL. […]
(§2) To test catalepsy, a horizontal bar (2 mm diameter) was placed 4 cm above the ground. […] Descent latency was measured as the delay to when either both paws were removed from the bar or one paw touched the ground. […]

For assay [5], the system named is 6-OHDA-treated mice. The following applies: mouse, in vivo. As for the experimental part: as §1
6-hydroxydopamine treatment Bilateral lesions of the substantia nigra pars compacta were achieved by injecting 6-OHDA Bromide (Sigma-Aldrich) into the right and left medial forebrain bundles. […]
as §2

In the case of `CCCN1CCC[C@@H]2Cc3n[nH]cc3C[C@H]21` [quinpirole], the entries for the “EPSC after LTD induction, % of baseline at 30-40 min” value in assay [1] and in assay [2] were 81±9 % of baseline and 65±8 % of baseline, respectively. Besides, the “EPSC, % of baseline at 20-30 min after brief DHPG application” value in assay [3] is on record as 73±8 % of baseline. Further, the results for the “Distance traveled in 15 min, open field” value in assay [4] and in assay [5] were 105±47 cm and 385±129 cm, respectively.
